Data: patent publication US8609678B2, “Reverse amide compounds as protein deacetylase inhibitors and methods of use thereof” (Acetylon Pharmaceuticals, priority 2010, dated 2013)
pIC50: −log10 of the molar value. Like-named read-outs stand apart in the source and are kept apart here.

Protein sequences, listed by entry. Tags and fused reporters are not part of them. Lines headed by an entry give the natural chain unless they say otherwise; changes in a name come on top.
UniProt Q9UBN7: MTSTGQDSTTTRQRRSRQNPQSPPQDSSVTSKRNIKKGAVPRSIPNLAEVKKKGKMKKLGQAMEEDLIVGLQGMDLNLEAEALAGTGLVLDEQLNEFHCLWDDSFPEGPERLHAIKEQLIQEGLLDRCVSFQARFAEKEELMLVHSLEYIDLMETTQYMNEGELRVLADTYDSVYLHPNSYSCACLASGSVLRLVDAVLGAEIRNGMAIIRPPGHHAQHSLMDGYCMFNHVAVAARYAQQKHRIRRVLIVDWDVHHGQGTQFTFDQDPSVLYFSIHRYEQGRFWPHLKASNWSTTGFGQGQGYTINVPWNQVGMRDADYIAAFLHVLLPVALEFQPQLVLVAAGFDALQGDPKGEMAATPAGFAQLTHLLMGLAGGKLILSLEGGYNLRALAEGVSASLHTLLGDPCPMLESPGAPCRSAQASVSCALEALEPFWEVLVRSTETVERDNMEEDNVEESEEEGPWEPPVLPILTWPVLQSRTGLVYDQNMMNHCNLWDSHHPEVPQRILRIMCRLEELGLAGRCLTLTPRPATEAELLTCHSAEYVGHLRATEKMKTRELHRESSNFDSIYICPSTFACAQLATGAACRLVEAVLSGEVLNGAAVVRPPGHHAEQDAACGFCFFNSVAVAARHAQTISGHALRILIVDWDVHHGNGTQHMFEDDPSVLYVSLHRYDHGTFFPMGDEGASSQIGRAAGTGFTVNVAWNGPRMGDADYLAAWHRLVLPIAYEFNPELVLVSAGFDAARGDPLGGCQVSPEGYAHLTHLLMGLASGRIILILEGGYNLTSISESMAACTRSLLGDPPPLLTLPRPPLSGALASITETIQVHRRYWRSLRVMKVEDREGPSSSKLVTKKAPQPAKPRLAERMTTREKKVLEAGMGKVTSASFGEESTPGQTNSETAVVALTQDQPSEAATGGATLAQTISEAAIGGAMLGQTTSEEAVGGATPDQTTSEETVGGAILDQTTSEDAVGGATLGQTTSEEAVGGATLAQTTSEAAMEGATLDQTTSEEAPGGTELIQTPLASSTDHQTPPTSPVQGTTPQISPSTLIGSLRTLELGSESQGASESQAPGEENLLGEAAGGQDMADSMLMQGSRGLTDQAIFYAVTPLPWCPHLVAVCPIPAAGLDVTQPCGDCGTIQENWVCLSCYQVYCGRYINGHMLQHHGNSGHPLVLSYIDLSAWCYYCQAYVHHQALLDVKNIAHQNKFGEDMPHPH

Biological target: HDAC6 (Homo sapiens (Human), UniProt Q9UBN7)
Assay: HDAC enzyme assay, HDAC6
Conditions: for IC50: read-out: IC50(nM) HDAC6, 2 ng/ml enzyme, 14 μM tripeptide substrate

IC50 | pIC50 | Compound
5 nM |  | O=C(CCCCCCNC(=O)c1cnc(N2CCCCC2)nc1)NO [N-(7-(hydroxyamino)-7-oxoheptyl)-2-(piperidin-1-yl)pyrimidine-5-carboxamide]
47 nM |  | COC(c1ccc(C(=O)N(C)CCCCCCC(=O)NO)cc1)(c1cccc(F)c1)c1cccc(F)c1 [4-(bis(3-fluorophenyl)(methoxy)methyl)-N-(7-(hydroxyamino)-7-oxoheptyl)-N-methyl benzamide]
4 nM |  | Cc1cccc(C)c1Nc1ccc(C(=O)NCCCCCCC(=O)NO)cc1F [4-(2,6-dimethylphenylamino)-3-fluoro-N-(7-(hydroxyamino)-7-oxoheptyl)benzamide]
9 nM |  | CN(CCCCCCC(=O)NO)C(=O)c1ccc(C(O)(c2ccccc2F)c2ccccc2F)cc1 [4-(bis(2-fluorophenyl)(hydroxy)methyl)-N-(7-(hydroxyamino)-7-oxoheptyl)-N-methyl benzamide]
363 nM |  | Cc1cccc(C)c1Nc1ccc(C(=O)N(C)CCCCC(=O)NO)cc1 [4-(2,6-dimethylphenylamino)-N-(5-(hydroxyamino)-5-oxopentyl)-N-methylbenzamide]
9 nM |  | Cc1cccc(C)c1N(C)c1ccc(C(=O)N(C)CCCCCCC(=O)NO)c(F)c1 [4-((2,6-dimethylphenyl)(methyl)amino)-2-fluoro-N-(7-(hydroxyamino)-7-oxoheptyl)-N-methylbenzamide]
6 nM |  | CCOC(c1ccc(C(=O)NCCCCCCC(=O)NO)cc1)(c1ccccn1)c1ccccn1 [4-(ethoxydipyridin-2-ylmethyl)-N-(7-(hydroxyamino)-7-oxoheptyl)benzamide]
45 nM |  | CC(C)c1cccc(C(C)C)c1N(C)c1ccc(C(=O)NCCCCCCC(=O)NO)cc1 [4-((2,6-diisopropylphenyl)(methyl)amino)-N-(7-(hydroxyamino)-7-oxoheptyl)benzamide]
7 nM |  | CC(O)(c1ccc(C(=O)NCCCCCCC(=O)NO)cc1)c1ccccn1 (centres unmarked) [4-(1-hydroxy-1-(pyridin-2-yl)ethyl)-N-(7-(hydroxyamino)-7-oxoheptyl)benzamide]
18 nM |  | CN(CCCCCCC(=O)NO)C(=O)c1ccc(C(O)(c2ccccc2)c2ccncc2)cc1 (centres unmarked) [4-(hydroxy(phenyl)(pyridin-4-yl)methyl)-N-(7-(hydroxyamino)-7-oxoheptyl)-N-methylbenzamide]
7 nM |  | O=C(CCCCCCNC(=O)c1cnc(N2CCC[C@@H](O)C2)nc1)NO [(R)-N-(7-(hydroxyamino)-7-oxoheptyl)-2-(3-hydroxypiperidin-1-yl)pyrimidine-5-carboxamide]
45 nM |  | CCOC(c1ccc(C(=O)N(C)CCCCCCC(=O)NO)cc1)(c1ccccn1)c1ccccn1 [4-(ethoxydipyridin-2-ylmethyl)-N-(7-(hydroxyamino)-7-oxoheptyl)-N-methylbenzamide]
14 nM |  | O=C(CCCCCCNC(=O)c1ccc(N(c2ccccc2)c2ccccn2)cc1)NO [N-(7-(hydroxyamino)-7-oxoheptyl)-4-(phenyl(pyridin-2-yl)amino)benzamide]
 | 7.41 | CCN(c1ccc(C(=O)N(C)CCCCCCC(=O)NO)cc1)c1ccccc1C(F)(F)F [4-(ethyl(2-(trifluoromethyl)phenyl)amino)-N-(7-(hydroxyamino)-7-oxoheptyl)-N-methylbenzamide]
 | 6.96 | O=C(CCCCCCCNC(=O)c1ccc(N(c2ncccn2)c2ncccn2)cc1)NO [4-(dipyrimidin-2-ylamino)-N-(8-(hydroxyamino)-8-oxooctyl)benzamide]
3 nM |  | O=C(CCCCCCNC(=O)c1ccc(Nc2c(F)cccc2F)cc1)NO [4-(2,6-difluorophenylamino)-N-(7-(hydroxyamino)-7-oxoheptyl)benzamide]
14 nM |  | O=C(CCCCCCNC(=O)c1ccc(N(c2ccccc2)c2cnccn2)cc1)NO [N-(7-(hydroxyamino)-7-oxoheptyl)-4-(phenyl(pyrazin-2-yl)amino)benzamide]
107 nM |  | CN(CCCCCCC(=O)NO)C(=O)c1ccc(N(C)c2nc3ccccc3o2)cc1 [4-(benzo[d]oxazol-2-yl(methyl)amino)-N-(7-(hydroxyamino)-7-oxoheptyl)-N-methylbenzamide]
82 nM |  | CN(CCCCCCC(=O)NO)C(=O)c1ccc(N(c2ccccc2)c2ccccc2)cc1 [4-(diphenylamino)-N-(7-(hydroxyamino)-7-oxoheptyl)-N-methylbenzamide]
20 nM |  | COC(c1ccc(C(=O)NCCCCCCC(=O)NO)cc1)(c1ccc(F)cc1F)c1ccc(F)cc1F [4-(bis(2,4-difluorophenyl)(methoxy)methyl)-N-(7-(hydroxyamino)-7-oxoheptyl)benzamide]
48 nM |  | Cc1cccc(C)c1Nc1ccccc1C(=O)N(C)CCCCCCC(=O)NO [2-(2,6-dimethylphenylamino)-N-(7-(hydroxyamino)-7-oxoheptyl)-N-methylbenzamide]
3 nM |  | O=C(CCCCCCNC(=O)c1ccc(C(O)(c2ccc(F)cc2)c2ccc(F)cc2)cc1)NO [4-(bis(4-fluorophenyl)(hydroxy)methyl)-N-(7-(hydroxyamino)-7-oxoheptyl)benzamide]

IC50 | pIC50 | Compound
8 nM |  | O=C(CCCCCCNC(=O)c1cnc(N(CCO)CC(c2ccc(F)cc2)c2ccc(F)cc2)nc1)NO [2-((2,2-bis(4-fluorophenyl)ethyl)(2-hydroxyethyl)amino)-N-(7-(hydroxyamino)-7-oxoheptyl)pyrimidine-5-carboxamide]
11 nM |  | Cc1cccc(Cl)c1Nc1ccc(C(=O)N(C)CCCCCCC(=O)NO)cc1 [4-(2-chloro-6-methylphenylamino)-N-(7-(hydroxyamino)-7-oxoheptyl)-N-methylbenzamide]
15 nM |  | O=C(CCCCCCNC(=O)c1ccc(N(c2ccccc2)S(=O)(=O)c2ccccc2)cc1)NO [N-(7-(hydroxyamino)-7-oxoheptyl)-4-(N-phenylphenylsulfonamido)benzamide]
3 nM |  | COC(c1ccccc1)(c1ccncc1)c1ccc(C(=O)NCCCCCCC(=O)NO)cc1 (centres unmarked) [N-(7-(hydroxyamino)-7-oxoheptyl)-4-(methoxy(phenyl)(pyridin-4-yl)methyl)benzamide]
24 nM |  | Cc1cccc(C)c1N(c1ccc(C(=O)N(C)CCCCCCC(=O)NO)cc1)c1ncccn1 [4-((2,6-dimethylphenyl)(pyrimidin-2-yl)amino)-N-(7-(hydroxyamino)-7-oxoheptyl)-N-methylbenzamide]
33 nM |  | Cc1cccc(C)c1Nc1ncc(C(=O)NCCCCCCC(=O)NO)cn1 [2-(2,6-dimethylphenylamino)-N-(7-(hydroxyamino)-7-oxoheptyl)pyrimidine-5-carboxamide]
35 nM |  | CN(CCCCCCC(=O)NO)C(=O)c1ccc(N(C)c2ccccc2C#N)cc1 [4-((2-cyanophenyl)(methyl)amino)-N-(7-(hydroxyamino)-7-oxoheptyl)-N-methylbenzamide]
13 nM |  | O=C(CCCCCCNC(=O)c1cnc(N2CCN(CCO)CC2)nc1)NO [N-(7-(hydroxyamino)-7-oxoheptyl)-2-(4-(2-hydroxyethyl)piperazin-1-yl)pyrimidine-5-carboxamide]
47 nM |  | CN(CCCCCCC(=O)NO)C(=O)c1ccc(C(c2ccccc2)c2ccccc2)cc1 [4-benzhydryl-N-(7-(hydroxyamino)-7-oxoheptyl)-N-methylbenzamide]
36 nM |  | CN(CCCCCCC(=O)NO)C(=O)c1ccc(C(C)(O)c2ccccn2)cc1 (centres unmarked) [4-(1-hydroxy-1-(pyridin-2-yl)ethyl)-N-(7-(hydroxyamino)-7-oxoheptyl)-N-methyl benzamide]
7 nM |  | CC(C)c1ccccc1N(C)c1ncc(C(=O)NCCCCCCC(=O)NO)cn1 [N-(7-(hydroxyamino)-7-oxoheptyl)-2-((2-isopropylphenyl)(methyl)amino)pyrimidine-5-carboxamide]
3 nM |  | COC(c1ccccc1)(c1ccc(C(=O)NCCCCCCC(=O)NO)cc1)c1cccc(C(=O)N(C)C)c1 (centres unmarked) [3-((4-(7-(hydroxyamino)-7-oxoheptylcarbamoyl)phenyl)(methoxy)(phenyl)methyl)-N,N-dimethylbenzamide]
22 nM |  | O=C(CCCCCCNC(=O)c1ccc(C(c2ccccc2)c2ccccc2)cc1)NO [4-benzhydryl-N-(7-(hydroxyamino)-7-oxoheptyl)benzamide]
5 nM |  | Cc1cccc(C)c1N(C)c1ccc(C(=O)NCCCCCCC(=O)NO)c(F)c1 [4-((2,6-dimethylphenyl)(methyl)amino)-2-fluoro-N-(7-(hydroxyamino)-7-oxoheptyl)benzamide]
15 nM |  | CN(CCCCCCC(=O)NO)C(=O)c1ccc(C(O)(c2cc(F)cc(F)c2)c2cc(F)cc(F)c2)cc1 [4-(bis(3,5-difluorophenyl)(hydroxy)methyl)-N-(7-(hydroxyamino)-7-oxoheptyl)-N-methylbenzamide]
13 nM |  | CN(CCCCCCC(=O)NO)C(=O)c1ccc(C(O)(c2ccc(F)cc2F)c2ccc(F)cc2F)cc1 [4-(bis(2,4-difluorophenyl)(hydroxy)methyl)-N-(7-(hydroxyamino)-7-oxoheptyl)-N-methylbenzamide]
4 nM |  | COC(c1ccccc1)(c1ccc(C(=O)NCCCCCCC(=O)NO)cc1)c1ccc(C(=O)N(C)C)cc1 (centres unmarked) [4-((4-(7-(hydroxyamino)-7-oxoheptylcarbamoyl)phenyl)(methoxy)(phenyl)methyl)-N,N-dimethylbenzamide]
3 nM |  | CC(=O)N(c1ccccc1)c1ccc(C(=O)NCCCCCCC(=O)NO)cc1 [N-(7-(hydroxyamino)-7-oxoheptyl)-4-(N-phenylacetamido)benzamide]
3 nM |  | CN(c1ccc(C(=O)NCCCCCCC(=O)NO)cc1)c1ccccc1C(F)(F)F [N-(7-(hydroxyamino)-7-oxoheptyl)-4-(methyl(2-(trifluoromethyl)phenyl)amino)benzamide]
12 nM |  | O=C(CCCCCCNC(=O)c1ccc(N(c2ccccc2)c2cncnc2)cc1)NO [N-(7-(hydroxyamino)-7-oxoheptyl)-4-(phenyl(pyrimidin-5-yl)amino)benzamide]
18 nM |  | O=C(CCCCCCNC(=O)c1ccc(N(c2ccccc2)c2ccccc2)cc1)NO [4-(diphenylamino)-N-(7-(hydroxyamino)-7-oxoheptyl)benzamide]
11 nM |  | CN(c1ccc(C(=O)NCCCCCCC(=O)NO)cc1)c1nc2ccccc2o1 [4-(benzo[d]oxazol-2-yl(methyl)amino)-N-(7-(hydroxyamino)-7-oxoheptyl)benzamide]
